Laboratory results: US20070066505A1, “Anthocyanases as detergent additives” (priority 2005, published 2007)

Test system: OC[C@H]1O[C@@H](O[C@H]2[C@H](O)[C@@H](O)C(O)O[C@@H]2CO)[C@H](O)[C@@H](O)[C@@H]1O
Test: purified protein, by the assay type

Substance	Km (other: native enzyme-3, 45.0 °C)	Km (other: recombinant anthocyanase (r-enzyme-3))
Schizosaccharomyces pombe anthocyanase (Santp, enzyme-3), native (Schizosaccharomyces pombe 972h-)	91.86 mM	
Schizosaccharomyces pombe anthocyanase, recombinant, produced in Arxula adeninivorans (r-enzyme-3, rSantp) (Schizosaccharomyces pombe 972h-)		11.19 mM
